Laboratory results from patent US20110150914A1, “COMPOSITIONS AND METHODS FOR DENGUE VIRUS (DV) TREATMENT AND VACCINATION” (priority 2008, published 2011).

Molecular target: H-2 D^b (mouse; human), P61769

SSVNVSLT (modifications not checked) [NS4B59-66]
IC50: 1.45 µM
